Reference: ChEMBL document CHEMBL3112506, “Synthesis and structure-activity relationship studies of 4-((2-hydroxy-3-methoxybenzyl)amino)benzenesulfonamide derivatives as potent and selective inhibitors of 12-lipoxygenase” (J Med Chem, 2014)

How the values were obtained:
[1] = molecular target: T1, Polyunsaturated fatty acid lipoxygenase ALOX15 (Homo sapiens, UniProt P16050)
T1 sequence (P16050 whole entry): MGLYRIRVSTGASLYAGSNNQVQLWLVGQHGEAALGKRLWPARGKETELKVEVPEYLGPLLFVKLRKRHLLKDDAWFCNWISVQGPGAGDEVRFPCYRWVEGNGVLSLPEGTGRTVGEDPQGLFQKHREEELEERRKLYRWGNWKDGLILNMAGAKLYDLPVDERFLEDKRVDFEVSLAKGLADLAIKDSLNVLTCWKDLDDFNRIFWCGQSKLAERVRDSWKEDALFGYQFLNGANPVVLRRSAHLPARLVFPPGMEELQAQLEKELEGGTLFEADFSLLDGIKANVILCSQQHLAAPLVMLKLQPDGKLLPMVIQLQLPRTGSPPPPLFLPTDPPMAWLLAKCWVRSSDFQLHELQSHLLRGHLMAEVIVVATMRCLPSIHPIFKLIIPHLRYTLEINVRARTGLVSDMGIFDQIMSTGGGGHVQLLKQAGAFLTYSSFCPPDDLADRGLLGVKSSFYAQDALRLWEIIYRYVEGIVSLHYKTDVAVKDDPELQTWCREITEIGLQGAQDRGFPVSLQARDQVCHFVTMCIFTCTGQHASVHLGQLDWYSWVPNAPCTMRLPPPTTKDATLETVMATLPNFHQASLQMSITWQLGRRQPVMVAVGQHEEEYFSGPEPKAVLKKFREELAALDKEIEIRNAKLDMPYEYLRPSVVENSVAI

in vitro = conditions: rat, liver microsomes

COc1cccc(CNc2ccc(S(=O)(=O)Nc3ccccc3)cc2)c1O
IC50 [1]: 7.6 µM

COc1ccc2nc(NS(=O)(=O)c3ccc(NCc4cccc(OC)c4O)cc3)sc2c1
IC50 [1]: 5.1 µM

COc1cccc(CNc2ccc(S(=O)(=O)Nc3nc4ccc(F)cc4s3)cc2)c1O
IC50 [1]: 4.5 µM

COc1cccc(CNc2ccc(S(=O)(=O)Nc3nc4ccccc4s3)cc2)c1O [VLX-1005]
half-life (in vitro): 8 min
